Amino acid sequences for entries named in this document (tags omitted). Chains listed by the source or under a name are the forms on record and can include a tag or linker. Residues count along the entry.
UniProt P56817, 46-457 limits assumed, form in doubt: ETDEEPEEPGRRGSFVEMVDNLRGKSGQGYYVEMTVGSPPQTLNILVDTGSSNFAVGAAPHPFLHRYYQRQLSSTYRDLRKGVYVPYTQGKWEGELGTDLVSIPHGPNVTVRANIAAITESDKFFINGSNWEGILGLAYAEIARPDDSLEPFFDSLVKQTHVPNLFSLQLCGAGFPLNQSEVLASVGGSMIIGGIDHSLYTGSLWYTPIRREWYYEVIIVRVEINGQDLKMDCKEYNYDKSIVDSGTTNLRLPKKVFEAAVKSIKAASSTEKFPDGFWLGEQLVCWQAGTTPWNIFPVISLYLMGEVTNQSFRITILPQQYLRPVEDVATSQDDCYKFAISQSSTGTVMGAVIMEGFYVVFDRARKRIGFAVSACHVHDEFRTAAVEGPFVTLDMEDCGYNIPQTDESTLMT

In patent US20200392251A1:

B1: anti-BACE1 IgG B3B12 (antibody, V domains shown)
VH: EVQLVESGGGLVQPGGSLRLSCAASGFNIPYSSMHWVRQAPGKGLEWVASISSYSSSTSYADSVKGRFTISADTSKNTAYLQMNSLRAEDTAVYYCARYICGHRWRDFDMWRARTGVNYAMDYWGQGTLVTVSS
VL: DIQMTQSPSSLSASVGDRVTITCRASQSVGTYLNWYQQKPGKAPKLLIYATSNLRSGVPSRFSGSGSGTDFTLTISSLQPEDFATYYCQQSYSIPRFTFGPGTKLEIKR
B2: anti-BACE1 Fab B2B9 (Fab, V domains shown)
VH: EVQLVESGGGLVQPGGSLRLSCAASGFNISYSSMHWVRQAPGKGLEWVASIYPSYSYTSYADSVKGRFTISADTSKNTAYLQMNSLRAEDTAVYYCARSSSSYYYGMDYWGQGTLVTVSS
VL: DIQMTQSPSSLSASVGDRVTITCRASQSVSSAVAWYQQKPGKAPKLLIYSASSLYSGVPSRFSGSRSGTDFTLTISSLQPEDFATYYCQQSSYSLITFGQGTKVEIKR

Key:
[1] = biological target: human β-secretase 1 (BACE1), extracellular/catalytic domain (human) (UniProt P56817); experiment: FRET peptide inhibition assay; KI=IC50/(S/Km+1)
[2] = biological target: human β-secretase 1 (BACE1), extracellular/catalytic domain (human) (UniProt P56817); experiment: biolayer interferometry; biotinylated protease on streptavidin sensor, Fab in solution

Binder | Ki [1] | Kd [2]
B1 | 13 nM | –
B2 | – | 110 nM
